Source: publication PMC4775225, “Bromodomain inhibition of the transcriptional coactivators CBP/EP300 as a therapeutic strategy to target the IRF4 network in multiple myeloma” (eLife, 2016)

Sequences of proteins named here, by UniProt entry; tags and fusion partners are left off. Residues count along the entry.
UniProt Q92793, 1085-1192 limits assumed: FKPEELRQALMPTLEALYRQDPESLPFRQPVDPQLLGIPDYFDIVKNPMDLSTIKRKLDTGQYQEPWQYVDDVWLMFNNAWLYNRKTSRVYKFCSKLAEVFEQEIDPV

Biological target: CBP bromodomain (Homo sapiens, UniProt Q92793)
Assay: biochemical
Settings: read-out: DTm

- ΔTm at 20 µM: 7.42 °C
SMILES: COc1ccc(CCc2nc3cc(-c4c(C)noc4C)ccc3n2C[C@H](C)N2CCOCC2)cc1Cl [SGC-CBP30]
